Laboratory results published in patent US20100098761A1, “Polymer Compositions For Biomedical And Material Applications” (University of Massachusetts Medical School, priority 2007, published 2010).

System: murine myoblast C2C12 cells
Test: Osteogenic trans-differentiation of C2C12 cells (ALP stain)
Assay type: cell-based, mouse
Description: Grafts (5×5×1 mm, FlexBone 25% HA-25% TCP) were pre-absorbed with varying amounts of growth factors and cytokines to provide an exogenous supply for remodeling. Grafts loaded with growth factors rhBMP-2, rmRANKL, and rhVEGF165 were analyzed at the respective preferred doses. The preferred loading dose of RANKL (10 ng/FlexBone graft) was determined by the osteoclastic differentiation of macrophage RAW264.7, induced by the RANKL released from the graft as indicated by positive TRAP stains (purple) of multinucleated cells on Day 6. […] The preferred loading dose of rhBMP-2/7 heterodimer (40 ng/FlexBone graft) was determined by the osteogenic differentiation of C2C12 cells induced by the BMP-2/7 released from the graft in culture. […] Finally, the preferred loading dose of rhVEGF165 in stimulating the proliferation of human vascular endothelial cells in culture was determined to be 5 ng/graft.
Materials. […] The compressive behavior of FlexBone in fully hydrated state as a function of TCH content was analyzed using a Q800 Dynamic Mechanical Analyzer (DMA, TA Instruments) equipped with a submersion compression fixture. […] An L-square was used to make sure that the sanded top and bottom surfaces were parallel prior to testing, and the final dimensions of each specimen were measured by a digital caliper. […]

B1: rhBMP-2/7: recombinant human bone morphogenetic protein-2/7 heterodimer, R&D Systems (protein, UniProt P12643 283-396; P18075 293-431, looked up)
Bone morphogenetic protein 2: QAKHKQRKRLKSSCKRHPLYVDFSDVGWNDWIVAPPGYHAFYCHGECPFPLADHLNSTNHAIVQTLVNSVNSKIPKACCVPTELSAISMLYLDENEKVVLKNYQDMVVEGCGCR
Bone morphogenetic protein 7: STGSKQRSQNRSKTPKNQEALRMANVAENSSSDQRQACKKHELYVSFRDLGWQDWIIAPEGYAAYYCEGECAFPLNSYMNATNHAIVQTLVHFINPETVPKPCCAPTQLNAISVLYFDDSSNVILKKYRNMVVRACGCH
modifications: heterodimer
notes: recombinant human bone morphogenetic protein-2/7 heterodimer, R&D Systems
- preferred loading dose (determined by osteogenic differentiation of C2C12 cells induced by released BMP-2/7): 40 ng/FlexBone graft
- osteogenic trans-differentiation (ALP activity) (single dose 40-ng/mL directly in culture without graft carrier, day three): able to induce osteogenic trans-differentiation of C2C12
